Results reported in patent EP0548798A1, “Antiviral agent” (SANWA KAGAKU KENKYUSHO CO., LTD., priority 1991, dated 1993).

Test system: GMK cells
Experiment: Cytotoxicity observed microscopically in GMK cells (Test Example 1)
Assay type: cell-based, green monkey
Settings: 10 µg/ml, in parentheses
Description: Confluent GMK cells (derived from green monkey kidney) in 96-well plates were infected with HSV-1 (Miyama strain) in the presence of various concentrations of test compounds. […] The virus titer (TCID₅₀) was determined from CPE of virus infected culture. Antivirus effects of test compounds were calculated from TCID₅₀ values of test compound treated and control cultures and represented by ΔTCID₅₀(log₁₀). Test compounds were dissolved in MEM medium, ethanol or DMSO to 10 mg/ml, and diluted with MEM medium supplemented with 1% fetal bovineserum.
In Table 1, parentheses indicate the cytotoxicity of these compounds. (-) and (±) indicate no cytotoxicity and slight cytotoxicity, respectively.

L-Glutamic acid α-[4-(2-chlorophenyl)-1-piperazine]amide hydrochloride [Compound of Example 14]
cytotoxicity: -
